Results reported in article PMC6864407 (Pharmacology Research & Perspectives, 2019).

System: laser‐induced CNV
Experiment: Laser‐induced rat CNV model
Type: in vivo, rats
Conditions: regorafenib eye‐drops 21.2 mg/mL twice daily 14 days, aflibercept 200 μg/eye single intravitreal injection, Dunnett test vs vehicle eye‐drops
Text: The animals were arranged in ascending order of body weights and animals close to the median of the body weights were serially allocated into groups (13 animals per group).
The ocular fundus of the eye of each animal was observed using a slit lamp (SL‐130; Carl Zeiss Meditec AG). Laser was irradiated on eight sites of the retina using a Multicolor Laser Photocoagulator (MC‐300; NIDEK Co., Ltd.) to induce CNV.
Regorafenib eye‐drops and aflibercept were used as test articles. Just after the laser irradiation (the day of the laser irradiation was the start date of repeated ocular instillation), vehicle eye‐drops and regorafenib eye‐drops at 21.2 mg/mL were topically administered twice daily to the eyes induced CNV for 14 days. Just after the laser irradiation, aflibercept (200 μg/eye) was administered by intravitreal injection once. […]
Photographs of CNV sites were taken using a confocal microscope (ECLIPSE TE2000‐U; Nikon Instech Co., Ltd.). The areas of CNV sites were calculated using ImageJ Software (National Institutes of Health).
The CNV areas of the laser‐irradiated eight sites/eye, excluding data unsuitable for evaluation (eg, irradiation sites could not be confirmed; ill‐defined border; damaged sample), were used for analysis. The mean value of CNV areas was calculated for each animal with at least three irradiation sites available for analysis. […]

**Q.** “Aflibercept: 40 mg/mL EYLEA Injection For Intravitreal Injection; anti‐VEGF agent, positive control” was tested. Which CNV area did it give?
**A.** significantly suppressed
